{"source": "paper PMC2289219", "about": "(The Journal of Cell Biology, 1991)", "system": "monolayers of brain ECs", "data": [{"smiles": "OC[C@H]1O[C@@](CO)(O[C@H]2O[C@H](CO)[C@@H](O)[C@H](O)[C@H]2O)[C@@H](O)[C@@H]1O", "note": "[sucrose]", "values": [{"measurement": "Flux across high resistance monolayers", "result": "limited compared to that occurring across filters without cells"}]}]}
